The numbers were not newly measured in article PMC9373814, “3p-C-NETA: A versatile and effective chelator for development of Al^18F-labeled and therapeutic radiopharmaceuticals” (Theranostics, 2022), which cites them from elsewhere.

For the series the following is noted: rat plasma, 30 min p.i.; cited from earlier work.

On to [^18F]AlF-NOTA-Octreotide, for which the “intact tracer in plasma” value was over 98%.
